Assay results reported in paper PMC4645461, “Increased food intake with oxyntomodulin analogues” (Peptides, 2015).

By UniProt entry, the sequences of proteins in these tests, tags left out. Residues count along the entry.
UniProt P30082, 27-485: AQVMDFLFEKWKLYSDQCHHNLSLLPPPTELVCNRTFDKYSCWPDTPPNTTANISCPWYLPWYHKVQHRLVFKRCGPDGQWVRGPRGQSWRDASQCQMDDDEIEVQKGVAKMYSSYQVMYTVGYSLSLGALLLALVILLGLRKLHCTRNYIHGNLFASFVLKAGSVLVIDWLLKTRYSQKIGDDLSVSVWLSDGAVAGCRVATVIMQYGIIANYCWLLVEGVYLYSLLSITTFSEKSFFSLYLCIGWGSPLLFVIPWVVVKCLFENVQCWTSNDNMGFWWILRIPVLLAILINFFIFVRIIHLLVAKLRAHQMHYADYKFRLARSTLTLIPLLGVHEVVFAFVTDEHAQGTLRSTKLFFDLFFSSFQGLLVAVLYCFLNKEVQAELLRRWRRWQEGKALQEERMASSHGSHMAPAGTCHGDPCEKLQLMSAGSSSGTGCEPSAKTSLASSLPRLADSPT

Columns and labels:
rat glucagon receptor = molecular target: T1, rat glucagon receptor (Rattus norvegicus, UniProt P30082); experiment: cAMP accumulation, CHO-K1 cells over-expressing the rat glucagon receptor; type: cell-based; details: 30 min peptide stimulation at room temperature, serum free DMEM, 1 mM IBMX, cAMP by ELISA (405 nm), average EC50 of 3–5 independent experiments ± SEM, read-out: cAMP EC50 ± SEM, Rat Gcgr
T1 construct: host or cells: CHO-K1
Description: For cAMP studies, cells were seeded at a density of 150000 cells/ml in a 48 well plate (Nunc, VWR International Inc., Chicago, USA) and incubated for 24 h. Cells were serum starved for 1 h and then incubated for 30 mins at room temperature with a range of peptide concentrations diluted in serum free DMEM (Sigma–Aldrich, Dorset, UK) in the presence of 1 mM IBMX (3-isobutyl-1-methylxanthine, Sigma–Aldrich). […] EC50’s were calculated using Prism v5 (GraphPad Software Inc., San Diego, CA, USA). Concentrations were applied in duplicate or triplicate per experiment and each experiment repeated a minimum of 3 times.
All food and bodyweight data are presented as mean ± SEM. […] Differences in 0–7 days cumulative food intake and bodyweight data were analysed using one way ANOVA and post hoc tests with Dunnett’s or Bonferroni corrections for multiple comparisons (Prism v5, GraphPad Software Inc. San Diego, CA, USA). cAMP EC50’s were calculated using a sigmoidal dose response curve and non-linear regression (Prism v5). […] In all cases P < 0.05 was considered statistically significant.

[1] = cited from earlier work; for half-life: no reference given
Text: The proglucagon peptides, for example, are susceptible to degradation by the enzyme dipetidylpeptidase-IV (DPPIV). […] With both OXM14 and ...

Row | Substance | EC50 (rat glucagon receptor) [nM] | half-life [1] | half-life of native oxyntomodulin ([1]; ref [24])
1 | GLP-1(7-36NH2) | > 1000 |  | 
2 | oxyntomodulin [OXM] |  | short half-lives | very short half-life
3 | Exendin-4 |  | longer half-life | 
